Only a part is listed here, and it is no random draw. Active and inactive are the calls of the source. No stated cut-off is given here; in the data, active means inhibition above about 50%; inactive means the rest.

Protein sequences, listed by entry. Tags and fused reporters are not part of them.
UniProt P03372, whole entry, looked up: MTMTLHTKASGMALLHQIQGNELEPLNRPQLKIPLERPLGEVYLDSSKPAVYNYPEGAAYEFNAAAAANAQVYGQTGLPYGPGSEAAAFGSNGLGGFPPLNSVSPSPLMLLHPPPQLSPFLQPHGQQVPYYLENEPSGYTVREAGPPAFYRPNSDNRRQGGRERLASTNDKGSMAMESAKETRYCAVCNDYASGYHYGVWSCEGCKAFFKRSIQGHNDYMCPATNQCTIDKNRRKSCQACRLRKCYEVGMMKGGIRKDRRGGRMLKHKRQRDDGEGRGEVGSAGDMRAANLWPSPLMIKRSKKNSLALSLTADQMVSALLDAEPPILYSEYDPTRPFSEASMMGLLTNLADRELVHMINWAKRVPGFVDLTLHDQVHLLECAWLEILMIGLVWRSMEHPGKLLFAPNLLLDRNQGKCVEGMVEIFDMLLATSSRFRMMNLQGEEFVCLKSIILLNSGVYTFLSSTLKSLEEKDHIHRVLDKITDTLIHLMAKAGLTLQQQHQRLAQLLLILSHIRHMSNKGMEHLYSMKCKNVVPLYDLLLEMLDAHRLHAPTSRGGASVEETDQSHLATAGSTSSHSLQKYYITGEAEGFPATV

For the experiment, the target named is Estrogen receptor (Homo sapiens) (UniProt P03372). Nature of the experiment: ERα–SRC-1 coactivator interaction inhibitors, primary screen, biochemical, TR-FRET, ERα LBD, estradiol-bound (AID 629).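 Further: 0% = receptor plus peptide control and 100% = peptide only without receptor.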 The following applies: TR-FRET ER-alpha LBD / SRC-1 peptide, at 25.6 µM, active compounds read high. (TR-FRET usually uses a lanthanide donor and a delayed reading to cut background.)
Usually inhibition stands for the relative decrease from the control value, in per cent. Regarding `O=C(OC1CN2CCC1CC2)c1cccc(Cl)c1` (configuration not stated), the inhibition is inactive: 2.27%.

As for `O=P(Nc1nccs1)(c1ccccc1)c1ccccc1`, the inhibition was inactive: -0.59%.

As to `c1nnnn1CCn1cnnn1`, the inhibition is inactive: -6.86%.

Take `O=P1(Nc2nc3ccc(Cl)cc3s2)COc2ccccc2O1` (configuration not stated): the inhibition is inactive: 2.35%.

`COC(=O)c1cc2c(s1)N=C(c1ccccc1)N(C)P2(=O)N1CCOCC1` (configuration not stated): the inhibition is inactive: -24.8%.

As for `CCOP(=O)(Nc1ccccc1)OCC`, the inhibition was inactive: 20.5%.

For the compound `CN1CCCC(OC(=O)C(c2ccccc2)c2ccccc2)C1` (configuration not stated), the inhibition is inactive: 4.22%.

Regarding `Cc1c2non([O-])c-2c(C)[n+](=O)[n+]1[O-]`, the inhibition is inactive: 2.52%.

For `Oc1ccccc1CNc1ccccn1`, the inhibition was inactive: 7.09%.

With `O=[N+]([O-])c1cccc2n[nH]nc12`, the inhibition was inactive: 4.36%.

As to `CCc1nc2c(n1)c1c(non1O)c1c2no[n+]1[O-]`, the inhibition was inactive: -0.77%.

Take `CC1CCN(C(=O)Oc2c(Cl)cc(Cl)c3cccnc23)CC1`: the inhibition was inactive: 2.7%.

Turning to `COP1(=S)c2c(C)nn(CCC#N)c2N=C(c2ccc(F)cc2)N1C` (configuration not stated), the inhibition is inactive: -3.92%.

For `O=C(COc1ccccc1)OC1CN2CCC1CC2` (configuration not stated), the inhibition was inactive: 0.75%.

As for `CCC(C)N(CC(C)C)C(=S)SC(NC(C)=O)C(Cl)(Cl)Cl` (configuration not stated), the inhibition is inactive: -9.54%.

`O=C(OC1CN2CCC1CC2)C12CC3CC(CC(C3)C1)C2` (configuration not stated): the inhibition is inactive: 8.94%.

As to `ClCCSc1nnc(-c2cccnc2)o1`, the inhibition was inactive: 5.92%.

Take `CCOP1(=S)c2c(C)nn(CCC#N)c2N=C(c2ccccc2F)N1C` (configuration not stated): the inhibition is inactive: 1.63%.

In the case of `CCOP1(=S)c2c(C)nn(CCC#N)c2N=C(c2ccc(F)cc2)N1C` (configuration not stated), the inhibition is inactive: -6.26%.

Consider `Cc1cccc(OCC(=O)OC2CN3CCC2CC3)c1` (configuration not stated), for which the inhibition is inactive: -1.74%.

With `O=P1(Nc2ccccn2)COc2ccccc2OC1`, the inhibition is inactive: 2%.

As to `Clc1n[nH]nc1-c1nn[nH][15n]1`, the inhibition was inactive: 0.53%.

For `CC1(CBr)Cn2c(nc3ccccc3c2=O)S1` (configuration not stated), the inhibition is inactive: 23.7%.

With `Cc1nn(-c2ccccc2)c2c1P(=O)(N1CCOCC1)N(C)C(c1ccccc1)=N2` (configuration not stated), the inhibition was inactive: 21.3%.

Turning to `O=P1(Nc2ncccn2)COc2ccccc2OC1`, the inhibition is inactive: 5.82%.

Turning to `O=P1(Nc2ccc(Br)cn2)COc2ccccc2OC1`, the inhibition is inactive: 9.17%.

As for `Cc1ccc(OCC(=O)OC2CN3CCC2CC3)cc1` (configuration not stated), the inhibition is inactive: 4.95%.

These data come from PubChem BioAssay AID629 (Emory University Molecular Libraries Screening Center, 2007).
